# Molecular target: human AHR (Homo sapiens, UniProt P35869)
# Protein sequences, listed by entry. Tags and fused reporters are not part of them. Residues count along the entry.
# UniProt P35869, 11-848 limits assumed: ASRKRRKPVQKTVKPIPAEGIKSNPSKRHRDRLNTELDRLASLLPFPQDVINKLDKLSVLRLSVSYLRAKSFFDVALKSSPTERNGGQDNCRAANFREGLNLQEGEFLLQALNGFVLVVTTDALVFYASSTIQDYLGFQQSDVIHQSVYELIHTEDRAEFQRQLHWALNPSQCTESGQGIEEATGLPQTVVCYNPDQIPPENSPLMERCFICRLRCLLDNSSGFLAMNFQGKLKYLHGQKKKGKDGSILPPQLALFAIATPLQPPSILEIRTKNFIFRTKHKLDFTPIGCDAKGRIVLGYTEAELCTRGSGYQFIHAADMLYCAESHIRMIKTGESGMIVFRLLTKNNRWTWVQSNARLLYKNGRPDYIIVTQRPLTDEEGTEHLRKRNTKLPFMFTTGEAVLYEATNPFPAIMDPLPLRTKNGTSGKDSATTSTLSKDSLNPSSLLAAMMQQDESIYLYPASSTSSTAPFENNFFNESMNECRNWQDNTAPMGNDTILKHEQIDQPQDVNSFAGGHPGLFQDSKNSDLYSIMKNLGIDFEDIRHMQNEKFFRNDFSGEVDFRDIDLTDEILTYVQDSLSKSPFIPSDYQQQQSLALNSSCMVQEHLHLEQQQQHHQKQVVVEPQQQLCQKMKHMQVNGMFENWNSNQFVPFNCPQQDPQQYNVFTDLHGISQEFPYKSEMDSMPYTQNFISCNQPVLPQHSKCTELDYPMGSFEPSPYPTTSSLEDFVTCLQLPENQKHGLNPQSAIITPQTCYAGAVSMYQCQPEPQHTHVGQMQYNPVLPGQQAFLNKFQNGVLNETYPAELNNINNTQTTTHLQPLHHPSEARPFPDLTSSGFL
# Assay: Human AHR agonist luciferase assay (CYP1A1 promoter Nano-luc reporter in HepG2 cells);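 note: stably transfected HepG2 clone, DRE-containing 1200 bp promoter region driving Nano-luc, treated 4 to 24 h with 11-point dilutions in tryptophan-free medium, medium-only wells as baseline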
# Conditions: read-out: HepG2 EC50; AHR activation, human hepatoma HepG2 reporter cells, incubated 4 to 24 hours
structure (smiles),measurement,value
COc1ccc2[nH]cc(C(=O)c3nc(C4(Cl)CCOC4=O)cs3)c2c1 (stereo not shown),EC50,< 500 nM
